Data: ChEMBL document CHEMBL1123413, “Synthesis and biological evaluation of 1-(1,2-benzisothiazol-3-yl)- and (1,2-benzisoxazol-3-yl)piperazine derivatives as potential antipsychotic agents” (J Med Chem, 1986)

Protein sequences, listed by entry. Tags and fused reporters are not part of them. Lines headed by an entry give the natural chain unless they say otherwise; changes in a name come on top.
UniProt P28564: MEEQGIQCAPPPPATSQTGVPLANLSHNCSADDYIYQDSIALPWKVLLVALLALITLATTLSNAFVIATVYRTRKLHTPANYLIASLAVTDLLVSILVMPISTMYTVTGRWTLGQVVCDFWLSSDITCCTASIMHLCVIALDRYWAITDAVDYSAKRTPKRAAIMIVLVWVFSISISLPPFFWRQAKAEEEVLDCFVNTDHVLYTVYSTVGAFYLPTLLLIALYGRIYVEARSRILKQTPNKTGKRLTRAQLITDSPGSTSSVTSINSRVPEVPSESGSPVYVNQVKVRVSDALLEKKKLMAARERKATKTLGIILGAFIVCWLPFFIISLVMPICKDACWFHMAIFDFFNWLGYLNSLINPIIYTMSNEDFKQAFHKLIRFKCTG
UniProt P30940: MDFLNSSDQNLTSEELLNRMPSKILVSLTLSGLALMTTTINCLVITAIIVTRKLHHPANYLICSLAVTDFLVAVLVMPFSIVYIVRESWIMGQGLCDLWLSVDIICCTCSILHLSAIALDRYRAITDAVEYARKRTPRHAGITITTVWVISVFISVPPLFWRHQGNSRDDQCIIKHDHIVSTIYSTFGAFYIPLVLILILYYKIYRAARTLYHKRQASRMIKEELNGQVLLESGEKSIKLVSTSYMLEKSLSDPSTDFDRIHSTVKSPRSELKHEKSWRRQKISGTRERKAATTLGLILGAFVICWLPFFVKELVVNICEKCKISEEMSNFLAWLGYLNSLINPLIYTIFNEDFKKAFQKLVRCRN
UniProt P19327: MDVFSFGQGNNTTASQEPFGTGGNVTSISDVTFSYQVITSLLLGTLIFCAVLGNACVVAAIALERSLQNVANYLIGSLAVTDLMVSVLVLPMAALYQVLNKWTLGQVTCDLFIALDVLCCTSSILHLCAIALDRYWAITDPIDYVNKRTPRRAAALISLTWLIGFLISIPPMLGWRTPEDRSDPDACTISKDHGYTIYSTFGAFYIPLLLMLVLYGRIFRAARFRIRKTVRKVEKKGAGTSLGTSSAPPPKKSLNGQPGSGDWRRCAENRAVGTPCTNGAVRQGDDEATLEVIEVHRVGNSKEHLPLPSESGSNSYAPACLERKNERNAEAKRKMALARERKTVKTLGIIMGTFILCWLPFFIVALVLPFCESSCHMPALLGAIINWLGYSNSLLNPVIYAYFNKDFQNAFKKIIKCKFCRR
UniProt P28565: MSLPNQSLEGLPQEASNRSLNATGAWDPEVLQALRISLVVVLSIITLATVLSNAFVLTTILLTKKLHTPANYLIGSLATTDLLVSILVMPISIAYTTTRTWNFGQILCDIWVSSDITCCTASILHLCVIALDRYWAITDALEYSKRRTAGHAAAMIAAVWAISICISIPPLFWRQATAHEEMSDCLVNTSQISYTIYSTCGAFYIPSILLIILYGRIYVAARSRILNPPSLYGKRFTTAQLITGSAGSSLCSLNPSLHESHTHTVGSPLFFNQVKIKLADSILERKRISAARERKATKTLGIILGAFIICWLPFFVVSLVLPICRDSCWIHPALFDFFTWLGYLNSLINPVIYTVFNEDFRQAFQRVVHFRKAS
UniProt P31390, whole entry: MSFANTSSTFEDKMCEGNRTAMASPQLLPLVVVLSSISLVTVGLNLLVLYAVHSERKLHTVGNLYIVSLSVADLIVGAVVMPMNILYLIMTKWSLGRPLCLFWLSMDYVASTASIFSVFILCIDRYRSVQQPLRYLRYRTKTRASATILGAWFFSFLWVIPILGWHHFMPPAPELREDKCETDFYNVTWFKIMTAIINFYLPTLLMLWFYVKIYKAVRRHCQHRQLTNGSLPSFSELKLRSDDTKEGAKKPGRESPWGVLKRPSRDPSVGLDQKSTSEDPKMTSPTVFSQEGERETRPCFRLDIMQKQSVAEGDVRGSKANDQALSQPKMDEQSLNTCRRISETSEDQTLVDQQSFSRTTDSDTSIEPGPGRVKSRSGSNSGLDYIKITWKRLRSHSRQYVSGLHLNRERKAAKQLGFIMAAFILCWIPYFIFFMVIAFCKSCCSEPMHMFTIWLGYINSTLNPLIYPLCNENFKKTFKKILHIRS

How the values were obtained:
[1] = biological target: Serotonin 1 (5-HT1) receptor (Rattus norvegicus, UniProt P28564+P30940+P19327+P28565); assay: Binding affinity towards 5-hydroxytryptamine 1 receptor was measured using radioligand ([3H]5-HT) binding assay; type: protein assay
Histamine H1 receptor = Histamine H1 receptor (Rattus norvegicus, UniProt P31390)

Structure (SMILES)	IC50 [1] [nM]	IC50 (Histamine H1 receptor) [nM]
Cl.O=C1CC2(CCCC2)CC(=O)N1CCCCN1CCN(c2nsc3ccccc23)CC1 [TIOSPIRONE HYDROCHLORIDE]	13	
CSc1ccc2c(c1)N(CCC1CCCCN1C)c1ccccc1S2 (configuration not stated) [THIORIDAZINE]		99
